Source: US7053177B1, “Random peptides that bind to gastro-intestinal tract (GIT) transport receptors and related methods” (Cytogen Corporation, priority 1997, dated 2006)

Tested on: rat gastro-intestinal tract (closed loop)
Test: Transport of preselected phage libraries in rat closed loop, detected by oligonucleotide hybridization/autoradiography
Conditions: hSI pool; in words

Sequence | Transport from the closed loop model into the portal circulation | Presence in the intestine samples or fractions
RGAADQRRGWSENLGLPRVGWDAIAHNSYTFTSRRPRPP [Phage SNi38] | transported | –
SGGEVSSWGRVNDLCARVSWTGCGTARSARTDNKGFLPKHSSLR [Phage SNi45] | not transported | –
SDSDGDHYGLRGGVRCSLRDRGCGLALSTVHAGPPSFYPKLSSP [Phage SNiAX2] | not transported | –
RTTTAKGCLLGSFGVLSGCSFTPTSPPPHLGYPPHSVN [Phage SNiAX6] | not transported | –
SPCGGSWGRFMQGGLFGGRTDGCGAHRNRTSASLEPPSSDY [Phage SNi34] | transported | –
RVGQCTDSDVRRPWARSCAHQGCGAGTRNSHGCITRPLRQASAH [Phage SNi10] | transported | found in the intestine samples or fractions
SHSGGHMRAYGDVFRELRDRWNATSHHTRPTPQLPRGPN [Phage SNi28] | not transported | –
SPKLSSVGVMTKVTELPTEGPNAISIPISATLGPRNPLR [Phage SNiAX8] | not transported | –
